According to PubChem BioAssay AID602340 (Broad Institute, 2012):
The list shows a part of the results, in another mix than the full data. Some tests of the compounds listed are not included; inactive here does not mean inactive elsewhere. The source made the active and inactive calls.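 The calls were made as follows: active = mean ATP rescue above about 67%, or every replicate alone reaching that limit (limit read from the data, passing the limit was not always enough); inconclusive = no clear call, values can overlap the other calls; inactive = mean under the limit and some replicate under it.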

Assay: suppressors of statin myotoxicity in C2C12 myotubes, primary screen, cell-based, single point, plate reader (AID 602340);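 also: myotubes were challenged with 10 µM simvastatin during compound exposure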
Conditions: C2C12 myotubes + simvastatin, ATP luminescence, 48 h; at 7.49 µM; stronger effect = higher value; scaled: DMSO 0, geranylgeraniol control 100

Row | Structure (SMILES) | rescue of ATP level
1 | CN(C)c1ccc(C(=O)NCC2(N(C)C)CCCCC2)cc1 | inactive: 4.7%
2 | COc1ccc(C(=O)NCC2(N(C)C)CCCCC2)cc1 | inactive: -11.1%
3 | Cc1cc(C(=O)NCC2(N3CCCCC3)CCCCC2)ccc1[N+](=O)[O-] | inactive: -3.47%
4 | O=C(NCC1(N2CCCCC2)CCCCC1)c1cccc(Br)c1 | inactive: -7.09%
5 | O=C(NCC1(N2CCCCC2)CCCCC1)c1cc(F)c(F)cc1Cl | inactive: -2.94%
6 | CN1[C@@H]2CC[C@H]1CC(OC(=O)C(O)(c1ccccc1)c1ccccc1)C2 (some centres undefined) | inactive: 3.48%
7 | Cc1ccc(C(=O)NCC2(N3CCCCC3)CCCCC2)cc1 | inactive: 29.7%
8 | COc1cc(SC)ccc1C(=O)NCC1(N(C)C)CCCCC1 | inactive: 2.49%
9 | CC(C)N1C(=O)CC2(CCN(CCOC(=O)C(O)(c3ccccc3)c3ccccc3)CC2)C1=O | inactive: -18.5%
10 | O=C(OC1CN2CCC1CC2)C(CO)(c1ccccc1)c1ccccc1 (centres undefined) | inactive: 6.93%
11 | CC(C)Oc1ccc(C(=O)NCC2(N(C)C)CCCCC2)cc1 | inactive: -0.787%
12 | O=C(OCCN1CCCC1)C(O)(c1ccccc1)c1ccccc1 | inactive: 3.66%
13 | CN(C)c1cccc(C(=O)NCC2(N(C)C)CCCCC2)c1 | inactive: -2.17%
14 | C=C(C)C#CC(O)(C(=O)OC1CCN(C)CC1)c1ccccc1 (centres undefined) | inactive: 5.84%
15 | COc1ccc(Br)c(C(=O)NCC2(N3CCCCC3)CCCCC2)c1 | inactive: 11.8%
16 | COc1cc(C(=O)NCC2(N(C)C)CCCCC2)c([N+](=O)[O-])cc1OC | inactive: -17.1%
17 | CN(C)C1(CNC(=O)c2ccc(Br)cc2)CCCCC1 | inactive: -9.16%
18 | O=C(NCC1(N2CCCCC2)CCCCC1)c1cccc(Cl)c1 | inactive: -0.906%
19 | COc1ccc(Cl)cc1C(=O)NCC1(N(C)C)CCCCC1 | inactive: -10.5%
